IC50 data for one compound are collected here from patent US6395748B2, “Tropane-derivatives, their preparation and use” (NeuroSearch A/S, priority 1996, dated 2002).

By UniProt entry, the sequences of proteins in these tests, tags left out.
UniProt P23977, whole entry: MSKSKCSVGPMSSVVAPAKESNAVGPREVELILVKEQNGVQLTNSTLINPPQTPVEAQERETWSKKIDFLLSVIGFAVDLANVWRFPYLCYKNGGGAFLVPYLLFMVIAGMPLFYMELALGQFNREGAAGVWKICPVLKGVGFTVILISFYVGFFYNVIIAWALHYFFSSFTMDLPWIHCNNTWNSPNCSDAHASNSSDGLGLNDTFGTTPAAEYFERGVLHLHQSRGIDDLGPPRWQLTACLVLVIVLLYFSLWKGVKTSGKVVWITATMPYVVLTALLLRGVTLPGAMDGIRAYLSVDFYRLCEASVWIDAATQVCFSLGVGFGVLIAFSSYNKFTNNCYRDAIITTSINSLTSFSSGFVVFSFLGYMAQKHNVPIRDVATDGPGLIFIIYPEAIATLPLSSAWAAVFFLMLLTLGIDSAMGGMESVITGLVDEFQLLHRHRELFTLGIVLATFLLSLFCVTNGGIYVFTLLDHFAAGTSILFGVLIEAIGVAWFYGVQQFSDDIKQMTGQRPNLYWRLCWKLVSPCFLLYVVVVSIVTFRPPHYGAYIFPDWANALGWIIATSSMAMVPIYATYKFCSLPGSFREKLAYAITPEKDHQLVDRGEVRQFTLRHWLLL

Assay [1] deals with T1, dopamine transporter (Rattus norvegicus, UniProt P23977).
T1 construct: Corpi striati from male Wistar rats (150-200 g) are homogenized; from tissue; host or cells: rat striatal synaptosomes (P2 pellet)
As to the kind of experiment: In vitro inhibition of 3H-dopamine (3H-DA) uptake in striatal synaptosomes. In kind it is biochemical. The protocol: Monoamine oxidase activity will be inhibited in the presence of pargyline. The homogenate is centrifuged at 1000×g for 10 min. The resulting supernatant is then centrifuged at 27,000×g for 50 min and the supernatant is discarded.
After incubation the samples are poured directly onto Whatman GF/C glass fibre filters under suction. The filters are then washed three times with 5 ml of ice-cold 0.9% (w/v) NaCl solution. The amount of radioactivity on the filters is determined by conventional liquid scintillation counting. Specific uptake is calculated as the difference between total uptake and non-specific uptake.

The target of assay [2] is T1, dopamine transporter. Put plainly: In vitro inhibition of 3H-WIN 35428 binding.

On to `CCOC[C@@H]1[C@@H](c2ccc(Cl)c(Cl)c2)C[C@@H]2CC[C@H]1N2C` [(1R, 2R, 3S)-2-ethoxymethyl-3-(3,4-dichlorophenyl)tropane], for which the IC50 in assay [1] was found to be 8 nM; in assay [2] it was 35 nM.
